By UniProt entry, the sequences of proteins in these tests, tags left out. Residues count along the entry.
UniProt Q00961, 20-1237: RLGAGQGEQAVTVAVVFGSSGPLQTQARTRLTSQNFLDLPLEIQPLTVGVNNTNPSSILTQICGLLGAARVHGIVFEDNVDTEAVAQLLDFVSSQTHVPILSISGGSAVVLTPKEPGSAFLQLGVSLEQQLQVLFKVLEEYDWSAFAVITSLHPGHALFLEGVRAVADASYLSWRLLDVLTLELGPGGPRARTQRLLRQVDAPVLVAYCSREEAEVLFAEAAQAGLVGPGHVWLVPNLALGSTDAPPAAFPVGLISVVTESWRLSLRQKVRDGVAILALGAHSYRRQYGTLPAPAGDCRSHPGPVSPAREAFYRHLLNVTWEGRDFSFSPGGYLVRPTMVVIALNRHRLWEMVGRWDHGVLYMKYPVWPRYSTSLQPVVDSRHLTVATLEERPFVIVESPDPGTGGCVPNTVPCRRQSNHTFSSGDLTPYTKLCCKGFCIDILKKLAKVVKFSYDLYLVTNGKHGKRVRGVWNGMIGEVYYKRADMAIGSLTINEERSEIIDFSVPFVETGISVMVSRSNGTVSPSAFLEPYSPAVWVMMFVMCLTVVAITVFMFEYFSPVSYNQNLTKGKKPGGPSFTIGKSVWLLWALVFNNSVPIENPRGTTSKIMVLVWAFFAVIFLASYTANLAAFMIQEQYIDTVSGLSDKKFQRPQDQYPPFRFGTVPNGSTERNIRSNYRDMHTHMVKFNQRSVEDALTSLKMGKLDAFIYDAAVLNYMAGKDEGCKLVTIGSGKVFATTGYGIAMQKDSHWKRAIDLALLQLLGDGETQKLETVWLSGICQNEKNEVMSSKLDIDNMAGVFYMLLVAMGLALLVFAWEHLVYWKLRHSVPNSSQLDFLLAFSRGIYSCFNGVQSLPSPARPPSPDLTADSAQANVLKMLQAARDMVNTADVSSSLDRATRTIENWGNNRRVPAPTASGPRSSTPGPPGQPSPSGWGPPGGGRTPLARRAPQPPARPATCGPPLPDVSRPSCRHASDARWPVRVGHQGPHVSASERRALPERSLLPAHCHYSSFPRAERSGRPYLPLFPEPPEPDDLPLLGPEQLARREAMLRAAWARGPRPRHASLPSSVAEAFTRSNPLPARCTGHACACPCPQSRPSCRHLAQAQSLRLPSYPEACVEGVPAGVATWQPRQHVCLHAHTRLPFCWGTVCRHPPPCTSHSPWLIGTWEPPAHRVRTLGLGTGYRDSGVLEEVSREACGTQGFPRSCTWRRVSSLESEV
UniProt Q62645, 28-1323: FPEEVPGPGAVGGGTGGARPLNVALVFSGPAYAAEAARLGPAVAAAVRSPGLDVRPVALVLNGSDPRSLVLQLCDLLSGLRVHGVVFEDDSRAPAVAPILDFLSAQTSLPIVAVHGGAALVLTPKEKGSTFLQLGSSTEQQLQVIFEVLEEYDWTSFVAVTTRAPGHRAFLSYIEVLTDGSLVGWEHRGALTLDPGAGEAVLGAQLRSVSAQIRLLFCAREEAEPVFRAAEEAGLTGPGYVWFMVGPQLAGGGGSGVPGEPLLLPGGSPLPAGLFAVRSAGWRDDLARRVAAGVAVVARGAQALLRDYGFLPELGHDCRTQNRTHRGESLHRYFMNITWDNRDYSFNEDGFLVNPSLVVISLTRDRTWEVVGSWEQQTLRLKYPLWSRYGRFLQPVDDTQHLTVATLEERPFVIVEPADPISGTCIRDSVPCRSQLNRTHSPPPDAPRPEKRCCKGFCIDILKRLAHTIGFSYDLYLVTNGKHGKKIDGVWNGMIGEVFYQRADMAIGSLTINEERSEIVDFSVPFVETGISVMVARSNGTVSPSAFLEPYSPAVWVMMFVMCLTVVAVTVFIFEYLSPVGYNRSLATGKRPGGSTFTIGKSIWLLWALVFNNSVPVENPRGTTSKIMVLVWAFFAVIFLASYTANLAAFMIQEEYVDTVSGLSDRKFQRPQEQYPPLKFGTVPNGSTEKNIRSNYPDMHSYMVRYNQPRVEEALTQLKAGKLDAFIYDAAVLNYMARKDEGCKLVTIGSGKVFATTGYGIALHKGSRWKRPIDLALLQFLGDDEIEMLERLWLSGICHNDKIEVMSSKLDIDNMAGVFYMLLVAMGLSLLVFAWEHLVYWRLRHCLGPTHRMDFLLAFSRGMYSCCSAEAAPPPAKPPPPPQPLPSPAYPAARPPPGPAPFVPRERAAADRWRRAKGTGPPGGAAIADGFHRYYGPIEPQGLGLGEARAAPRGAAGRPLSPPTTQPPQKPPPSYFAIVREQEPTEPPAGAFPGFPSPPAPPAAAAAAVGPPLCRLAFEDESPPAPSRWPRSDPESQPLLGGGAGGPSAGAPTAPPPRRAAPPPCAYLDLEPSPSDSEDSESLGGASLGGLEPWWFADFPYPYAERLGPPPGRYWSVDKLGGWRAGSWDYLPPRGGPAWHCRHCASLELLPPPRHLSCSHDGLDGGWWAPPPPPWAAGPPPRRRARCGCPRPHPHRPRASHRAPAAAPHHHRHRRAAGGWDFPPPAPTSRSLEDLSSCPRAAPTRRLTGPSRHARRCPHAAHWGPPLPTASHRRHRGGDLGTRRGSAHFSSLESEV

In article PMC7961853 (Journal of medicinal chemistry, 2020):

What was measured:
GluN1/GluN2C = GluN1/GluN2C (Rattus norvegicus, UniProt Q00961); conditions: LLE = p(doubling conc.) − cLogP
GluN1/GluN2D = GluN1/GluN2D (Rattus norvegicus, UniProt Q62645); conditions: LLE = p(doubling conc.) − cLogP
[1] = test system: GluN2C- and GluN2D-containing receptors; assay: TEVC recordings, values stated in text jointly for GluN2C/D; format: cell-based, rat; conditions: value or range over GluN2C and GluN2D

SMILES | LLE GluN2C (GluN1/GluN2C) | LLE GluN2D (GluN1/GluN2D) | pEC50 at GluN2C/D [1]
COc1ccc(OC[C@H]2c3cccn3CCN2C(=O)c2cccc(Cl)c2)cc1 [R-(+)-25i] | 1.2 | 1.3 | –
COc1ccc(OCC2c3cc(OC)sc3CCN2C(=O)c2cccc(Cl)c2)cc1 (stereo not shown) [25d, (3-Chlorophenyl)(2-methoxy-4-((4-methoxyphenoxy)methyl)-6,7-dihydrothieno[3,2-c]pyridin-5(4H)-yl)methanone] | −1.1 | −1.2 | –
COc1ccc(OCC2c3cccn3CC(=O)N2Cc2cccc(C(F)(F)F)c2)cc1 (stereo not shown) [31a, 1-((4-Methoxyphenoxy)methyl)-2-(3-(trifluoromethyl)benzyl)-1,2-dihydropyrrolo[1,2-a]pyrazin-3(4H)-one] | 0.7 | 0.9 | –
COc1ccc(OCC2c3ccccc3CCN2C(=O)c2cccc(Cl)c2)cc1 (stereo not shown) [compound 36] | −1.0/−1.0 | −1.0/−1.0 | –
COc1ccc(OCC2c3cccn3CCN2C(=O)c2cccc(C(F)(F)F)c2)cc1 (stereo not shown) [25j, (1-((4-Methoxyphenoxy)methyl)-3,4-dihydropyrrolo[1,2-a]-pyrazin-2(1H)-yl)(3-(trifluoromethyl)phenyl)methanone] | 1.0 | 0.5 | –
COc1ccc(OCC2c3sccc3CCN2C(=O)c2cccc(Cl)c2)cc1 (stereo not shown) [25a, (3-Chlorophenyl)(7-((4-methoxyphenoxy)methyl)-4,7-dihydrothieno[2,3-c]pyridin-6(5H)-yl)methanone] | −0.3 | 0.0 | 5.4
COc1ccc(OCC2c3ccsc3CCN2C(=O)c2cccc(Cl)c2)cc1 (stereo not shown) [25h, (3-Chlorophenyl)(4-((4-methoxyphenoxy)methyl)-6,7-dihydrothieno[3,2-c]pyridin-5(4H)-yl)methanone] | −0.1 | −0.2 | –
COc1ccc(OCC2c3sccc3CCN2C(=O)/C=C/C(F)(F)F)cc1 (stereo not shown) [25c, (E)-4,4,4-Trifluoro-1-(7-((4-methoxyphenoxy)methyl)-4,7-dihydrothieno[2,3-c]pyridin-6(5H)-yl)but-2-en-1-one] | 1.2 | 1.3 | 4.8–4.9
COc1ccc(OC[C@H]2c3cccn3CC(=O)N2Cc2cccc(C(F)(F)F)c2)cc1 [R-(+)-31a] | 0.8 | 1.0 | –
COc1ccc(OCC2c3sccc3CCN2C(=O)c2ccc(Cl)s2)cc1 (stereo not shown) [25b, (5-Chlorothiophen-2-yl)(7-((4-methoxyphenoxy)methyl)-4,7-dihydrothieno[2,3-c]pyridin-6(5H)-yl)methanone] | −0.1 | 0.2 | –
COc1ccc(OCC2c3occc3CCN2C(=O)c2cccc(Cl)c2)cc1 (stereo not shown) [25f, (3-Chlorophenyl)(7-((4-methoxyphenoxy)methyl)-4,7-dihydrofuro[2,3-c]pyridin-6(5H)-yl)methanone] | 0.3 | 0.4 | –
COc1ccc(OC[C@H]2c3cccn3CCN2C(=O)c2cccc(C(F)(F)F)c2)cc1 [R-(+)-25j] | 1.2 | 1.3 | –
COc1ccc(OCC2c3ccc(OC)cc3CC(=O)N2CCCC(F)(F)F)cc1 (stereo not shown) [12f, 6-Methoxy-1-((4-methoxyphenoxy)methyl)-2-(4,4,4-trifluorobutyl)-1,2-dihydroisoquinolin-3(4H)-one] | 0.9 | 1.0 | –
